Literature values, collected in patent publication US12552784B2, “1H-pyrrolo[2,3-b]pyridine derivatives as BCL-2 inhibitors for the treatment of neoplastic and autoimmune diseases” (priority 2019, dated 2026).

By UniProt entry, the sequences of proteins in these tests, tags left out.
UniProt Q07820, whole entry: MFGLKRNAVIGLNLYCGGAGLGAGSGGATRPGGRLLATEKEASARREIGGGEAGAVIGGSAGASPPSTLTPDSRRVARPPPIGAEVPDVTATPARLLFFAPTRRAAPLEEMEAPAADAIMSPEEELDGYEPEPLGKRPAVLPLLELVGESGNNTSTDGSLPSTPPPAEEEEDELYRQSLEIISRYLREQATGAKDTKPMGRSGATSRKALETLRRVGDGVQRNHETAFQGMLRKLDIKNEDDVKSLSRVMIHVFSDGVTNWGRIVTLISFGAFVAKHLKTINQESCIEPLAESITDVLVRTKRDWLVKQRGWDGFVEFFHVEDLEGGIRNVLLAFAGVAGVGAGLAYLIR
UniProt P10415, whole entry: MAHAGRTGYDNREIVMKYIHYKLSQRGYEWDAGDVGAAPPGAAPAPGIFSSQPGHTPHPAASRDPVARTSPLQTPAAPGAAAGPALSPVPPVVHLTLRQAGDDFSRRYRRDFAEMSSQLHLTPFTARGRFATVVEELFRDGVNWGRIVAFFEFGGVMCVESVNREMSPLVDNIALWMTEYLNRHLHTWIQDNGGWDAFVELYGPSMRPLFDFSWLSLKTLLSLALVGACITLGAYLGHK

Legend:
Mcl-1 = Mcl-1 (Homo sapiens, UniProt Q07820)
Bcl-2 = Bcl-2 (Homo sapiens, UniProt P10415)

CC1(C)CCC(CN2CCN(c3ccc(C(=O)NS(=O)(=O)c4ccc(NCC5CCOCC5)c([N+](=O)[O-])c4)c(Oc4cnc5[nH]ccc5c4)c3)CC2)=C(c2ccc(Cl)cc2)C1 [ABT-199]
activity to Mcl-1 (Mcl-1): no activity

CC1(C)CCC(c2ccc(Cl)cc2)=C(CN2CCN(c3ccc(C(=O)NS(=O)(=O)c4ccc(N[C@H](CCN5CCOCC5)CSc5ccccc5)c(S(=O)(=O)C(F)(F)F)c4)cc3)CC2)C1 [ABT-263]
Ki (Bcl-2): ≤ 1 nM
